IC50 data for one substance are collected here from article PMC3849266, “In Vitro and In Vivo Evaluation of a ^18F-Labeled High Affinity NOTA Conjugated Bombesin Antagonist as a PET Ligand for GRPR-Targeted Tumor Imaging” (PLoS ONE, 2013).

Sequences of proteins named here, by UniProt entry; tags and fusion partners are left off. A change or cut given only in a name is not applied to a line headed by its entry.
UniProt P30550: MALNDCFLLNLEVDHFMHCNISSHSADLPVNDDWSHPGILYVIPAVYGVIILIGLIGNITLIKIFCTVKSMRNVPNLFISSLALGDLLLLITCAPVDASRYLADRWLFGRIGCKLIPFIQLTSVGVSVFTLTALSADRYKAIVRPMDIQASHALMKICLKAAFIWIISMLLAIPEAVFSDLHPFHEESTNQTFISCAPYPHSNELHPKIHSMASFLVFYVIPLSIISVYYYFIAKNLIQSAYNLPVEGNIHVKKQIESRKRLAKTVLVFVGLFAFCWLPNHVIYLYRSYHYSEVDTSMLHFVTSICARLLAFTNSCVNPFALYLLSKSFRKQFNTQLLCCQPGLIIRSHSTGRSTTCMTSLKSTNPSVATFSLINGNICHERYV

In this assay the target is T1, GRPR (Homo sapiens, UniProt P30550).
T1 construct: PC-3 human prostate cancer cells (ATCC, LGC Standards AB) expressing GRPR; host or cells: PC-3 human prostate cancer cells
In words: In vitro competitive binding assay: displacement of 125I-Tyr4-BBN on PC-3 cells. The conditions noted are these: 3 h at 4 °C, read-out: IC50 (inhibition of 125I-Tyr4-BBN binding). Background: In a radioligand displacement assay an active substance lowers the binding of a labelled ligand.

Usually IC50 stands for the point on the concentration scale where inhibition reaches its midpoint. “^natGa-NOTA-P2-RM26: NOTA-P2-RM26 loaded with stable gallium”: the IC50 was 3.5 ± 0.5 nM.
